The target of the assay is Transcription factor p65 (Homo sapiens) (UniProt Q04206). Nature of the assay: Inhibition of NF-kappaB p65 (unknown origin) by ELISA. For orientation: In an ELISA, binding on a coated surface is turned into a signal by an enzyme label.

Chains of the proteins cited; added tags and fusions are not shown.
UniProt Q04206, whole entry: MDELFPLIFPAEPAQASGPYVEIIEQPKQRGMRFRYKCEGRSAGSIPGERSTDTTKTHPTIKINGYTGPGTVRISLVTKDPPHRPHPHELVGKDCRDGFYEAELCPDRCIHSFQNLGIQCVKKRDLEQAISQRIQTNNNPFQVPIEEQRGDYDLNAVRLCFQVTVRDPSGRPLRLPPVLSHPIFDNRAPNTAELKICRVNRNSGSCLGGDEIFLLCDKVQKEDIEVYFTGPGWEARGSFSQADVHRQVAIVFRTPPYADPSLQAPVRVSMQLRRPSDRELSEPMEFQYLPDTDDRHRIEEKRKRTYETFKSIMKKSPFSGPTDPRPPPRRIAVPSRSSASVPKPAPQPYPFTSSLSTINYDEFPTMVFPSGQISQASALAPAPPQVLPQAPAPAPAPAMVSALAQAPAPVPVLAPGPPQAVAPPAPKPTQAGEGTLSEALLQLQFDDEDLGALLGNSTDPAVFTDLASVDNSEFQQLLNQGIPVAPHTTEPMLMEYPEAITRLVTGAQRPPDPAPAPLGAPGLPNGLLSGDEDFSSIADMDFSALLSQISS

SMILES strings stand for the structures.

Molecule `COc1ccc([C@@]23Oc4cc(OC)cc(OC)c4[C@]2(O)[C@H](O)[C@H](C(=O)N(C)C)[C@H]3c2ccccc2)cc1` [ROCAGLAMIDE] yielded an ED50 of 80 nM.

These data come from ChEMBL document CHEMBL2331500, “Bioactive flavaglines and other constituents isolated from Aglaia perviridis” (J Nat Prod, 2013).
